Experimental findings from US20230160021A1, “METHOD FOR THE DETECTION OF A SEXUALLY TRANSMITTED INFECTIOUS PATHOGEN” (SELFDIAGNOSTICS DEUTSCHLAND GMBH, priority 2016, published 2023) are described below.

The subject of one test is LAMP reaction. Description: LAMP amplification activity in the presence of lytic agents / lytic peptides. In kind it is biochemical. The conditions noted are these: 5 μM antimicrobial peptide in LAMP reaction. Here is the method:
Loop-mediated isothermal amplification activity in the presence of different lytic agents. Percentage of amplification activity in the presence of 0.1% polyethylene glycol p-(1,1,3,3-tetramethylbutyl)-phenyl ether, 0.1 mg/ml lysozyme (with or without 0.1% polyethylene glycol p-(1,1,3,3-tetramethylbutyl)-phenyl ether or 1 mM EDTA) or alkaline lysis components.
Loop-mediated isothermal amplification activity in the presence of different lytic peptides. Percentage of amplification activity in the presence of 5 μM antimicrobial peptides.
To estimate potential inhibitory effect of different lysate preparation methods (alkaline, enzymatic, detergent lysis) and of antimicrobial peptides on downstream application efficiency, we have performed LAMP isothermal amplification in the presence of different lytic agents (FIG. 4-5).

A further test relates to E. coli. Description: Loop-mediated isothermal amplification directly from E. coli cell lysates after pretreatment of urine spiked E. coli. Format: cell-based, Escherichia coli. The following applies: 50 μM peptide, 5 min at RT, LAMP (FIG. 6). Here is the method:
Loop-mediated isothermal amplification directly from E. coli cell lysates. Isothermal amplification after pretreatment of urine spiked E. coli with different lysate preparation techniques. Lysozyme was used at 1 mg/ml concentration, polyethylene glycol p-(1,1,3,3-tetramethylbutyl)-phenyl ether at 1% and peptides at 50 μM concentration for the biological sample treatment. All sample pretreatments were performed for 5 min at RT° C. (except for heat treatment that was incubated at 95° C.).
A biological sample containing E. coli bacteria (urine sample in FIG. 6) is treated with 50 μM antimicrobial peptide belonging to but not limited to cecropin group (Cecropin P1 or SB-37 in FIG. 6) for 5 min at RT° C. 5 μl of the urine sample is added directly to the loop-mediated amplification reaction, so that final reaction volume is 50 μl and final components concentration as follows: 0.2 μM F3 primer, 0.2 μM B3 primer, 1.6 μM BIP primer, 1.6 μM FIP primer, 0.8 μM LF primer, 0.8 μM LB primer, 8 mM MgSO4, 1.4 mM dNTP, 0.8M betain, 20 mM Tris-HCl pH 8.8, 10 mM KCl, 10 mM (NH4)2SO4, 0.1% (v/v) Tween 20 and 16 units of Bsm polymerase.
In the example of E. coli detection from FIG. 6, pretreatment of the urine samples with antimicrobial peptides gave up to 6 times increased amount of target DNA. […]

For the substance SB-37, in the test with LAMP reaction, the “inhibiting effect on the LAMP amplification efficiency” value is reported as “only mild inhibition”. In addition, the “increase of the target DNA available for the isothermal amplification” value in the test with E. coli is recorded as 2 times.
